Antibody variant affinities, Ab-14 light chain, assay B

From the AlphaSeq antibody data of Li et al. 2023 (doi:10.1038/s41467-023-39022-2), copy in the FLAb collection.

Binding partner: SARS-CoV-2 spike HR2 peptide, sequence PDVDLGDISGINAS.

Parent scFv Ab-14: VH joined to VL by three GGGGS repeats. Changes lie in the light chain CDRs alone.
VH: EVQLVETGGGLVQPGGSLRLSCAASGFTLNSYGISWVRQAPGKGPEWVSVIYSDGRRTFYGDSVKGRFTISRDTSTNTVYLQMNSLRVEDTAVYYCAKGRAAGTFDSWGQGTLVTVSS
VL: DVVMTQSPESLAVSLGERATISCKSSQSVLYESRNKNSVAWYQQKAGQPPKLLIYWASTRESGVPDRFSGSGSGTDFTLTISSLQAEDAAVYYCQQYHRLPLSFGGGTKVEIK

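The parent was found by panning a naive human phage display library on the peptide. These sequences belong to a second round, designed from the earlier measurements on random variants of the parent. Their group label is 14L_GP_Gen (GP: Gaussian process model; Gen: genetic algorithm; a sequence that several methods proposed may carry one label only). In AlphaSeq, yeast of one mating type display the scFv and yeast of the other type display the target. Pairs that bind mate more often; barcode pairs of the diploids are counted by sequencing. Scores were corrected for input abundance and mapped to Kd with protein pairs of known affinity run in the same pool. The assay was run in six technical replicates.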

Each variant is given by its three light chain CDRs, as the data file delimits them; those of the parent are KSSQSVLYESRNKNSVA, WASTRES, QQYHRLPLS.
Scale: log10 of Kd in nM, estimated from mating counts; low values are strong binders.
The authors averaged sequences with at least three values out of six and counted those with two or fewer as poor binders.
Empty control strains, which show no peptide, gave a signal in 4% of pairings with all light chain designs; the median was 2.64 and 95% of these signals were weaker than 1.59. No background was subtracted. For each scFv, signals with the empty controls are counted beside the result, with their mean in brackets.
The range of this assay differs from that of the first round, and the authors advise against merging the two.

| # | CDR-L1 | CDR-L2 | CDR-L3 | log10 Kd (nM) by replicate | control signals |
|---|---|---|---|---|---|
| 1 | KVEQSQLYESRNKNSVA | NASQRES | QQYHRLPLS | -0.01 / -0.07 / -0.24 / -0.18 / -0.14 / 0.06 | 1 of 18 (2.08) |
| 2 | KISQSVLYESRNKNNVA | DASTRES | QQYHRLPLS | -0.48 / -0.43 / -0.52 / -0.67 / -0.37 / -0.46 | 2 of 18 (1.90) |
| 3 | KLEQLQLYESRNKNSVA | NASTRES | QQYHRLPLS | 0.15 / -0.43 / -0.52 / -0.56 / 0.07 / -0.23 | 0 of 18 |
| 4 | KLSQSVLYESRNKNSVA | EASTRES | QQYHRLPLL | -0.01 / 0.01 / -0.01 / -0.26 / 0.40 / 0.15 | 0 of 18 |
| 5 | KLSQSDLYESRNKNSVA | NASYRES | QQYHRLPLS | 0.15 / 0.16 / 0.09 / 0.20 / 0.09 / 0.26 | 1 of 18 (1.84) |
| 6 | KLSQSVLYESRNSNAVA | NASTRES | QQYHRLPLS | -0.03 / -0.40 / -0.13 / -0.41 / -0.49 / -0.15 | 0 of 18 |
| 7 | KLQQSNLYESRNKNSVA | NASQRLS | QQYHRLPLS | 0.10 / -0.07 / -0.01 / -0.25 / -0.19 / 0.01 | 0 of 18 |
| 8 | KLEQSELYESRNKNSVA | NASQRLS | QQYHRLPLS | 0.01 / -0.27 / -0.23 / -0.33 / -0.26 / -0.05 | 1 of 18 (1.86) |
| 9 | KLSQSELYESRMKNSVA | EASTRES | QQYHRLPLS | -0.05 / -0.13 / -0.23 / -0.29 / -0.17 / -0.08 | 3 of 18 (2.25) |
| 10 | KVSQSYLYEDRNKNSVA | NASTRES | QQYHRLPLS | 0.34 / 0.17 / 0.19 / 0.24 / 0.34 / 0.20 | 1 of 18 (2.84) |
| 11 | KLEQSVLYEERNKNSVA | NASTRES | QQYHRLPLS | -0.18 / -0.10 / -0.34 / -0.35 / -0.13 / 0.07 | 2 of 18 (2.21) |
| 12 | KVSQSVLYESRNKNAVA | DASTRES | QQYHRLPLS | -0.68 / -0.90 / -0.71 / -0.77 / -0.81 / -0.72 | 0 of 18 |
| 13 | KLSQSVLYESRLKNNVA | NASTRES | QQYHRLPLS | 0.08 / -0.39 / -0.02 / -0.01 / -0.37 / 0.10 | 1 of 18 (3.03) |
| 14 | KLPQSKLYESRNKNSVA | NASQRES | QQYHRLPLS | -0.01 / -0.09 / 0.03 / -0.09 / 0.06 / -0.14 | 2 of 18 (2.76) |
| 15 | KLQQSVLYESRNKNSVA | GASTRES | QQYHRLPLS | 0.09 / 0.08 / -0.44 / 0.02 / 0.05 / 0.03 | 0 of 18 |
| 16 | KVSQSWLYESRNFNSVA | NASTRES | QQYHRLPLS | 0.23 / 0.05 / 0.13 / -0.12 / -0.06 / 0.06 | 2 of 18 (2.92) |
| 17 | KLQQSYLYESRNKNSVA | NASTRLS | QQYHRLPLS | -0.07 / -0.20 / -0.41 / -0.32 / -0.25 / 0.04 | 1 of 18 (2.05) |
| 18 | KFSQSVLYESRNQNSVA | NASTRES | QQYHRLPLS | 0.50 / 0.21 / 0.05 / -0.13 / 0.28 / 0.54 | 3 of 18 (2.27) |
| 19 | KLPQSMLYESRNKNSVA | HASTRES | QQYHRLPLS | -0.04 / -0.38 / -0.22 / -0.20 / -0.13 / -0.03 | 0 of 18 |
| 20 | KFSQSELYESRNKNSVA | NASQRLS | QQYHRLPLS | -0.07 / -0.13 / -0.31 / -0.41 / 0.19 / -0.04 | 0 of 18 |
| 21 | KLEQSFLYESRNKNSVA | EASTRES | QQYHRLPLS | 0.21 / -0.15 / -0.26 / -0.28 / -0.19 / -0.09 | 1 of 18 (2.45) |
| 22 | KVSQSVLYESRNKNSVA | NASTRCS | QQYHRLPLS | 0.51 / 0.26 / 0.27 / -0.01 / 0.13 / 0.28 | 1 of 18 (2.44) |
| 23 | KLQQSWEYESRNKNSVA | NASTRLS | QQYHRLPLS | 0.31 / -0.35 / 0.03 / -0.09 / 0.18 / 0.32 | 0 of 18 |
| 24 | KLSQLVLYESRNKNSVA | NASTRMS | QQYHRLPLS | 0.33 / -0.03 / 0.15 / 0.39 / 0.19 / 0.49 | 0 of 18 |
| 25 | KLQQSYLYESRNKNSVA | EASTRES | QQYHRLPLS | -0.35 / -0.07 / -0.36 / -0.20 / -0.54 / -0.12 | 0 of 18 |
| 26 | KLSQSVWYESRNKNNVA | NASTRES | QQYHRLPLS | 0.60 / 0.52 / 0.43 / 0.09 / 0.39 / 0.71 | 3 of 18 (3.05) |
| 27 | KLQQSVLYESRNKNSVA | DASTRMS | QQYHRLPLS | -0.01 / -0.11 / -0.06 / -0.32 / 0.07 / 0.02 | 0 of 18 |
| 28 | KFSQSKLYESRNKNSVA | NASQRES | QQYHRLPLS | 0.15 / -0.18 / 0.18 / -0.35 / -0.22 / -0.21 | 2 of 18 (3.05) |
| 29 | KLSQSSLYESRNKNSVA | NASTRES | QQYHRLPLS | -0.38 / -0.53 / -0.51 / -0.65 / -0.58 / -0.40 | 0 of 18 |
| 30 | KFEQSWLYESRNKNSVA | NASTRES | QQYHRLPLS | -0.26 / -0.37 / -0.47 / -0.45 / -0.55 / -0.43 | 1 of 18 (2.75) |
| 31 | KLSQSELYESRNKNSVA | EASTREK | QQYHRLPLS | 0.11 / -0.05 / -0.38 / -0.24 / -0.31 / -0.09 | 1 of 18 (3.12) |
| 32 | KLSQSVLYESRNKNAVA | GASQRES | QQYHRLPLS | -0.32 / -0.52 / -0.45 / -0.67 / -0.54 / -0.34 | 0 of 18 |
| 33 | KSSWSELYESRNKNSVA | EASTRES | QQYHRLPLS | 0.23 / 0.15 / 0.00 / 0.12 / 0.22 / 0.35 | 1 of 18 (2.84) |
| 34 | KVSQQVLYESRNKNSVA | DASTRES | QQYHRLPLS | 0.56 / 0.69 / 0.73 / 1.35 / 0.43 / 0.75 | 1 of 18 (1.75) |

Repeated from above, the 2 best binders with a signal in all replicates:

CDR-L1	CDR-L2	CDR-L3	log10 Kd (nM) by replicate	control signals
KVSQSVLYESRNKNAVA	DASTRES	QQYHRLPLS	-0.68 / -0.90 / -0.71 / -0.77 / -0.81 / -0.72	0 of 18
KLSQSSLYESRNKNSVA	NASTRES	QQYHRLPLS	-0.38 / -0.53 / -0.51 / -0.65 / -0.58 / -0.40	0 of 18